According to PubChem BioAssay AID504374 (National Center for Advancing Translational Sciences (NCATS), 2011):
The entries are a selection whose mix differs from that of the whole data set. Inconclusive results are not listed. Calls of active or inactive are those of the source. The call rests on the fitted dose curve; in most records, active means well fitted inhibition curve with a large enough effect; inconclusive means small, poorly fitted or top-dose-only effect, or effect the other way; inactive means flat fitted curve, though single readings scatter.
Further: nearly all actives have a fitted effect of over 60% in size.
On the % scale 0 is the no-effect control and ±100 the full control effect.

The chains behind the UniProt entries cited, without tags or fusion partners.
UniProt Q01196, whole entry, looked up: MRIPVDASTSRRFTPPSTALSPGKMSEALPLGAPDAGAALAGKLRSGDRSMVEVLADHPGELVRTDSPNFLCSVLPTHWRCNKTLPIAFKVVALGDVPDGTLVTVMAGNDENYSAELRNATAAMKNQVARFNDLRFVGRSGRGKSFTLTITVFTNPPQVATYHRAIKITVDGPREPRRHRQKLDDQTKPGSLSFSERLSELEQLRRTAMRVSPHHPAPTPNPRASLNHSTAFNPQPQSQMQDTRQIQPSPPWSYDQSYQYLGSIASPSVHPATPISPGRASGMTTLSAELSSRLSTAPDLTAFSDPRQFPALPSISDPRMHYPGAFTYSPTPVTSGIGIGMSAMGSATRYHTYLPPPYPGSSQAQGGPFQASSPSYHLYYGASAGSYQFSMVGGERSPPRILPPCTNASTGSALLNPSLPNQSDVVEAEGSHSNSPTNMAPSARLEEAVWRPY
UniProt Q13951, whole entry, looked up: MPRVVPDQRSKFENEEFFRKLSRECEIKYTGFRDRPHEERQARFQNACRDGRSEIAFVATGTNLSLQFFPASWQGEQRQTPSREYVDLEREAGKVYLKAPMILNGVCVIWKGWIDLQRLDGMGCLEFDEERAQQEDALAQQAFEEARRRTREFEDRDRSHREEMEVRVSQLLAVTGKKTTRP

These compounds were tested against Runt-related transcription factor 1 (Homo sapiens) + Core-binding factor subunit beta (Homo sapiens) (UniProt Q01196+Q13951) (assay: qHTS Assay for Compounds Blocking the Interaction Between CBF-beta and RUNX1 for the Treatment of Acute Myeloid Leukemia: Hit Validation). Details: AlphaScreen CBFb-His/RUNX1-biotin binding; at 59.8 µM (top of the series).
With `O=[N+]([O-])c1ccc(OP2(=O)COCCO2)cc1` (stereo unspecified) the activity, negative = inhibition was inactive: -9.25%.
